Source: patent US20260001922A1, “PEPTIDES TARGETING SODIUM CHANNELS TO TREAT PAIN” (priority 2022, published 2026)

By UniProt entry, the sequences of proteins in these tests, tags left out.
UniProt Q15858, whole entry: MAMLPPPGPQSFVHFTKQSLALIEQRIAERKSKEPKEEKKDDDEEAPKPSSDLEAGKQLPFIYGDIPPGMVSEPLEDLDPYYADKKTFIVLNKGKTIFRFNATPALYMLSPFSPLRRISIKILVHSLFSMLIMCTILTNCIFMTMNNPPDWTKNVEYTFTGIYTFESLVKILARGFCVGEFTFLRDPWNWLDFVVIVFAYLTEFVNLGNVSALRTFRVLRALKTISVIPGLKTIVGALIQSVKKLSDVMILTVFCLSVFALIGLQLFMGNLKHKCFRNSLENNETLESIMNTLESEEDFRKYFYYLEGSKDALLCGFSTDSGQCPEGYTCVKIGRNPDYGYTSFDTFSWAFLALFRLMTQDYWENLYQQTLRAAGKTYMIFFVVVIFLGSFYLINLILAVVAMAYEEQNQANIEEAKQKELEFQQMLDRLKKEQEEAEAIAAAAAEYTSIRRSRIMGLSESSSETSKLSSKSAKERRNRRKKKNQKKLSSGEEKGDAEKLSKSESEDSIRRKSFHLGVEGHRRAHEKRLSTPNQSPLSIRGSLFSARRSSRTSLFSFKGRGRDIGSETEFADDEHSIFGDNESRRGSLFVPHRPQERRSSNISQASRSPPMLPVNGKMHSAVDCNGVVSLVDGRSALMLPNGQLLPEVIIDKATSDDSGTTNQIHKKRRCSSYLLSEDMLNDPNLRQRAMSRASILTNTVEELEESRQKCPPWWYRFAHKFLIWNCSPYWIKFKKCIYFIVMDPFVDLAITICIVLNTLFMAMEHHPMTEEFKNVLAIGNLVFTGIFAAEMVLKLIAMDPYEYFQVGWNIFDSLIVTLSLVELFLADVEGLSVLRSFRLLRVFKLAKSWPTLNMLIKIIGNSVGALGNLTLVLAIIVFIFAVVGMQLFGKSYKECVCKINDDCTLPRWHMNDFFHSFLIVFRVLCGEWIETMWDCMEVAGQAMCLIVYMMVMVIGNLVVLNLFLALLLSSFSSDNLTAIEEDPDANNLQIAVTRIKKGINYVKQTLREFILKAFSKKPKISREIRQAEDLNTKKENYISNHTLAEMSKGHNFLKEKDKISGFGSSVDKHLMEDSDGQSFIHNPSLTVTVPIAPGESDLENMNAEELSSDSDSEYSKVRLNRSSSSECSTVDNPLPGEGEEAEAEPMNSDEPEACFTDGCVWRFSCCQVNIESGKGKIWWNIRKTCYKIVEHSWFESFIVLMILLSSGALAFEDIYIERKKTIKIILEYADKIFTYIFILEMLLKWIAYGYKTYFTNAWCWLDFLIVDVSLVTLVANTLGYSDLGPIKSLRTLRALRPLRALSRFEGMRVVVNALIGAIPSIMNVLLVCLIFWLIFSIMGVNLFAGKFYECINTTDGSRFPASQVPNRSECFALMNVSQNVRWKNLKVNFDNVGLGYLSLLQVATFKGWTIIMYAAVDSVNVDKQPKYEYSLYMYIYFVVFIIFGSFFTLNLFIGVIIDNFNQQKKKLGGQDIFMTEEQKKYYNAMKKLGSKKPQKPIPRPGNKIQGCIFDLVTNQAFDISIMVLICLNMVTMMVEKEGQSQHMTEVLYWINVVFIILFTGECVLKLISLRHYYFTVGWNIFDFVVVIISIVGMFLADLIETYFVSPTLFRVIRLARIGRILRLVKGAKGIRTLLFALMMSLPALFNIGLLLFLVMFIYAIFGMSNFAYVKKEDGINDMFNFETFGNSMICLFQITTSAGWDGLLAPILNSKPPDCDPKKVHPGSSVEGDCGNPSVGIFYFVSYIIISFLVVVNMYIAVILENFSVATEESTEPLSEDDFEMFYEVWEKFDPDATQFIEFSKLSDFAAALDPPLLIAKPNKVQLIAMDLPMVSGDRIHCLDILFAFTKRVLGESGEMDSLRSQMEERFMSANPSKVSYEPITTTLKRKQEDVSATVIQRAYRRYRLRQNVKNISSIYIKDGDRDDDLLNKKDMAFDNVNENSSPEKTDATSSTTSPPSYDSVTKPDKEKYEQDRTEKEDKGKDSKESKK

Biological target: human Nav1.7 (Homo sapiens, UniProt Q15858)
Assay: cell-based
Details: whole-cell voltage clamp, HEK 293 cells; read-out: hNav1.7 IC50

Question: How did the IC50 turn out when `CSCC[C@@H]1NC(=O)[C@H](Cc2c[nH]c3ccccc23)NC(=O)[C@H](CCCCN)NC(=O)[C@H](CCC(N)=O)NC(=O)[C@@H](NC(=O)[C@@H](N)Cc2c[nH]cn2)CSSC[C@@H]2NC(=O)[C@@H]3CSSC[C@@H](C(=O)N[C@@H](CCCNC(=N)N)C(=O)N[C@@H](Cc4ccc(C)cc4C)C(=O)N[C@@H](CCC(=O)O)C(=O)N[C@@H](CSC(C)(C)C)C(=O)N[C@@H](CC(C)C)C(N)=O)NC(=O)[C@H](Cc4c[nH]c5ccccc45)NC(=O)[C@H](CC(C)C)NC(=O)[C@H](CCCNC(=N)N)NC(=O)[C@H](CSSC[C@H](NC(=O)[C@H]([C@@H](C)O)NC(=O)[C@H](CCC(N)=O)NC1=O)C(=O)N[C@@H](CC(=O)O)C(=O)N[C@@H](CCCCN)C(=O)N[C@@H](CC(=O)O)C(=O)N[C@@H](CCCNC(=N)N)C(=O)N[C@@H](CCCCN)C(=O)N3)NC(=O)[C@H](CCCNC(=N)N)NC(=O)[C@H](Cc1ccccc1)NC(=O)CNC(=O)[C@H](CCC(=O)O)NC2=O` [PTx2-3260] was run?
Answer: Its IC50 is 21 nM.
